From US9840507B2, “5,6-dihydro-imidazo[1,2-a]pyrazin-8-ylamine derivatives useful as inhibitors of beta-secretase (BACE)” (Janssen Pharmaceutica, NV, priority 2010, dated 2017)

Amino acid sequences for entries named in this document (tags omitted). Residues count along the entry.
UniProt P56817, 46-501 limits assumed: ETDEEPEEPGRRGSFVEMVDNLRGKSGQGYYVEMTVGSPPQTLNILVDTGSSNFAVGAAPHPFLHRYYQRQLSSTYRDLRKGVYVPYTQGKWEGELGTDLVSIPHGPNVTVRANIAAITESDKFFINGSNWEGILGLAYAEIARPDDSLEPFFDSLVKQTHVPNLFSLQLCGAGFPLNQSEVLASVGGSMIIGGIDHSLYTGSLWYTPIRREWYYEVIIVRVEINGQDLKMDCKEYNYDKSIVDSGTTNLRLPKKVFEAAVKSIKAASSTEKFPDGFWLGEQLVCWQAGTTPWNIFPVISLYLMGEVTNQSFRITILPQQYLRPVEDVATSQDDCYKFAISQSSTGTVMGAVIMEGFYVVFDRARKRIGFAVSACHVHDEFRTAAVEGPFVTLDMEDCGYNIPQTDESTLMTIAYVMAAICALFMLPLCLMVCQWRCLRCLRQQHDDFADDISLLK

What was measured:
[1] = test system: Aβtotal produced and secreted into the medium of human neuroblastoma SKNBE2 cells; test: Cellular αlisa assay in SKNBE2 cells, Aβtotal; format: cell-based; conditions: SKNBE2 cells expressing hAPP695, incubated for 18 hours
Description: (§1) In two αlisa assays the levels of Aβtotal and Aβ42 produced and secreted into the medium of human neuroblastoma SKNBE2 cells are quantified. The assay is based on the human neuroblastoma SKNBE2 expressing the wild type Amyloid Precursor Protein (hAPP695). The compounds are diluted and added to these cells, incubated for 18 hours and then measurements of Aβ42 and Aβtotal are taken. Aβtotal and Aβ42 are measured by sandwich αlisa. αlisa is a sandwich assay using biotinylated antibody AbN/25 attached to streptavidin coated beads and antibody Ab4G8 or cAb42/26 conjugated acceptor beads for the detection of Aβtotal and Aβ42 respectively. In the presence of Aβtotal or Aβ42, the beads come into close proximity. The excitation of the Donor beads provokes the release of singlet oxygen molecules that triggers a cascade of energy transfer in the Acceptor beads, resulting in light emission. Light emission is measured after 1 hour incubation (excitation at […] and emission at 615 nm).
(§2) A best-fit curve is fitted by a minimum sum of squares method to the plot of % Controlmin versus compound concentration.
(§3) LC=Median of the low control values
(§4) =Low control: cells preincubated without compound, without biotinylated Ab in the αlisa
(§5) HC=Median of the High control values
(§6) =High Control: cells preincubated without compound % Effect=100−[(sample−LC)/(HC−LC)*100] % Control=(sample/HC)*100% % Controlmin=(sample−LC)/(HC−LC)*100

[2] = test system: Aβ42 produced and secreted into the medium of human neuroblastoma SKNBE2 cells; test: Cellular αlisa assay in SKNBE2 cells, Aβ42; format: cell-based; conditions: SKNBE2 cells expressing hAPP695, incubated for 18 hours
Description: as §1, §2, §3, §4, §5, §6

[3] = target: recombinant BACE1 protein (Homo sapiens, UniProt P56817); test: Biochemical FRET based assay; conditions: recombinant BACE1 1 μg/ml, 10 μm substrate, 120 minutes, room temperature, pH 5.0

What does the source list for `C[C@@]1(c2cccc(NC(=O)c3ccc(C#N)cn3)c2)Cn2ccnc2C(N)=N1`?
Cellular αlisa assay in SKNBE2 cells Aβtotal pIC50 [1]: 7.67; Cellular αlisa assay in SKNBE2 cells Aβ42 pIC50 [2]: 7.68; Biochemical FRET based assay pIC50 [3]: 6.78

With `COc1cnc(C(=O)Nc2ccc(F)c([C@]3(C)Cn4cc(C(F)F)nc4C(N)=N3)c2)cn1` as the molecule, how does the “Cellular αlisa assay in SKNBE2 cells Aβtotal pIC50” value [1] read?
Its value is 7.36.

What about the “Cellular αlisa assay in SKNBE2 cells Aβ42 pIC50” value [2] of the same molecule?
Its value is 7.39.

What about the “Biochemical FRET based assay pIC50” value [3] of the same molecule?
The value was 6.63.

`C[C@@]1(c2cc(NC(=O)c3ccc(Cl)cn3)ccc2F)Cn2c(C#N)cnc2C(N)=N1` was tested. Which “Biochemical FRET based assay pIC50” value [3] did it give?
The value was 7.29.

For `COc1cnc(C(=O)Nc2ccc(F)c([C@]3(C)Cn4c(C#N)cnc4C(N)=N3)c2)cn1`, which “Biochemical FRET based assay pIC50” value [3] is on record?
The value was 7.33.

`C[C@@]1(c2cccc(NC(=O)c3ncc(Cl)cc3Cl)c2)Cn2ccnc2C(N)=N1` was tested. Which “Cellular αlisa assay in SKNBE2 cells Aβtotal pIC50” value [1] did it give?
Its value is 7.67.

What about the “Cellular αlisa assay in SKNBE2 cells Aβ42 pIC50” value [2] of the same molecule?
Its value is 7.65.

What about the “Biochemical FRET based assay pIC50” value [3] of the same molecule?
Its value is 6.95.

For `C[C@@]1(c2cccc(NC(=O)c3ccc(Cl)cn3)c2)Cn2ccnc2C(N)=N1`, which “Cellular αlisa assay in SKNBE2 cells Aβtotal pIC50” value [1] is on record?
Its value is 7.60.

And the “Cellular αlisa assay in SKNBE2 cells Aβ42 pIC50” value [2]?
The value was 7.60.

And the “Biochemical FRET based assay pIC50” value [3]?
The value was 6.76.

Which results are given for `COc1cnc(C(=O)Nc2cccc([C@]3(C)Cn4ccnc4C(N)=N3)c2)cn1`?
Cellular αlisa assay in SKNBE2 cells Aβtotal pIC50 [1]: 7.08; Cellular αlisa assay in SKNBE2 cells Aβ42 pIC50 [2]: 7.09; Biochemical FRET based assay pIC50 [3]: 6.14

For `C[C@@]1(c2cc(NC(=O)c3ccc(F)cn3)ccc2F)Cn2cc(C(F)F)nc2C(N)=N1`, which “Cellular αlisa assay in SKNBE2 cells Aβtotal pIC50” value [1] is on record?
Its value is 7.44.

And the “Cellular αlisa assay in SKNBE2 cells Aβ42 pIC50” value [2]?
The value was 7.43.

What about the “Biochemical FRET based assay pIC50” value [3] of the same molecule?
The value was 6.88.
